Test system: M1C-2 cells
Assay: metabolic rate of M1C-2 cells, lack of β2-adrenergic receptors
Details: isoproterenol, FIG. 27

In the case of `CC(C)NCC(O)c1ccc(O)c(O)c1` (stereo not shown), the “effect on metabolic rate” value is reported as “no effect”.

— patent US5496697A, “Methods and apparatus for detecting the effect of cell affecting agents on living cells” (priority 1993, dated 1996)
